Test results: patent publication US20250177353A1 (priority 2021, published 2025)

Assay: SAD phase I study: plasma pharmacokinetics of Compound 1 (Table 2)
[1] = 100 mg Fasted, single oral dose
[2] = 100 mg Fasted, single oral dose (N=1)
[3] = 200 mg Fasted, single oral dose
[4] = 200 mg Fasted, single oral dose (N=2)
[5] = 500 mg Fasted, single oral dose
[6] = 500 mg Fasted, single oral dose (N=3)
[7] = 600 mg Fasted Micronized, single oral dose

Cn1c(COc2ccc([N+](=O)[O-])cc2[N+](=O)[O-])cnc1[N+](=O)[O-]
AUClast, Geometric Mean (30 mg Fasted, single oral dose): 0.00446 µg·h/mL
AUClast, Median (30 mg Fasted, single oral dose): 0.00459 µg·h/mL
AUClast/D, Geometric Mean (30 mg Fasted, single oral dose): 0.149 ng·h/mL/mg
AUClast/D, Mean (SD) (30 mg Fasted, single oral dose): 0.151 (0.0304) h*ng/mL/mg
AUClast/D, Median (30 mg Fasted, single oral dose): 0.153 ng·h/mL/mg
Cmax, Geometric Mean (30 mg Fasted, single oral dose): 1.77 ng/mL
Cmax, Median (30 mg Fasted, single oral dose): 1.85 ng/mL
Cmax/D, Geometric Mean (30 mg Fasted, single oral dose): 0.0589 ng/mL/mg
Cmax/D, Mean (SD) (30 mg Fasted, single oral dose): 0.0618 (0.0219) ng/mL/mg
Cmax/D, Median (30 mg Fasted, single oral dose): 0.0615 ng/mL/mg
Tlag, Median (30 mg Fasted, single oral dose): 0.500 h
Tlast, Median (30 mg Fasted, single oral dose): 4.00 h
AUClast, Geometric Mean [1]: 0.01 µg·h/mL
AUClast, Median [1]: 0.00971 µg·h/mL
AUClast/D, Geometric Mean [1]: 0.100 ng·h/mL/mg
AUClast/D, Mean (SD) [1]: 0.107 (0.0427) h*ng/mL/mg
AUClast/D, Median [1]: 0.0971 ng·h/mL/mg
Cmax, Geometric Mean [1]: 3.46 ng/mL
Cmax, Median [1]: 3.96 ng/mL
Cmax/D, Geometric Mean [1]: 0.0346 ng/mL/mg
Cmax/D, Mean (SD) [1]: 0.0373 (0.0152) ng/mL/mg
Cmax/D, Median [1]: 0.0396 ng/mL/mg
Tlag, Median [1]: 0.500 h
Tlast, Median [1]: 6.00 h
AUC0-24 h, Median [2]: 0.0188 µg·h/mL
AUC extrapolated, Median [2]: 4.54%
AUCinf, Median [2]: 0.0188 µg·h/mL
AUCinf/D, Median [2]: 0.188 ng·h/mL/mg
CL/F, Median [2]: 5330 L/h
t1/2, Median [2]: 1.05 h
λz, Median [2]: 0.659 h⁻¹
AUClast, Geometric Mean [3]: 0.0363 µg·h/mL
AUClast, Median [3]: 0.0405 µg·h/mL
AUClast/D, Geometric Mean [3]: 0.181 ng·h/mL/mg
AUClast/D, Mean (SD) [3]: 0.191 (0.0642) h*ng/mL/mg
AUClast/D, Median [3]: 0.202 ng·h/mL/mg
Cmax, Geometric Mean [3]: 11.3 ng/mL
Cmax, Median [3]: 11.4 ng/mL
Cmax/D, Geometric Mean [3]: 0.0567 ng/mL/mg
Cmax/D, Mean (SD) [3]: 0.0615 (0.0264) ng/mL/mg
Cmax/D, Median [3]: 0.0568 ng/mL/mg
Tlag, Median [3]: 0.500 h
Tlast, Median [3]: 8.00 h
AUC0-24 h, Median [4]: 0.0431 µg·h/mL
AUC extrapolated, Median [4]: 6.14%
AUCinf, Median [4]: 0.0431 µg·h/mL
AUCinf/D, Median [4]: 0.215 ng·h/mL/mg
CL/F, Median [4]: 4760 L/h
t1/2, Median [4]: 1.49 h
λz, Median [4]: 0.476 h⁻¹
AUC0-24 h, Geometric Mean [5]: 53500 µg·h/mL
AUC0-24 h, Mean (SD) [5]: 68.0 (60.4) h*mg/mL
AUC0-24 h, Median [5]: 42500 µg·h/mL
AUClast, Geometric Mean [5]: 0.0443 µg·h/mL
AUClast, Median [5]: 0.0378 µg·h/mL
AUClast/D, Geometric Mean [5]: 0.0887 ng·h/mL/mg
AUClast/D, Mean (SD) [5]: 0.108 (0.0882) h*ng/mL/mg
AUClast/D, Median [5]: 0.0755 ng·h/mL/mg
Cmax, Geometric Mean [5]: 14.8 ng/mL
Cmax, Median [5]: 14.2 ng/mL
Cmax/D, Geometric Mean [5]: 0.0297 ng/mL/mg
Cmax/D, Mean (SD) [5]: 0.0329 (0.0156) ng/mL/mg
Cmax/D, Median [5]: 0.0284 ng/mL/mg
Geometric mean AUC0-24h [5]: 0.0535 µg·h/mL
Tlag, Median [5]: 0.250 h
Tlast, Median [5]: 6.00 h
Tmax, Median [5]: 3.0 h
AUC extrapolated, Median [6]: 2.19%
AUCinf, Median [6]: 0.0379 µg·h/mL
AUCinf/D, Median [6]: 0.0757 ng·h/mL/mg
CL/F, Median [6]: 13200 L/h
t1/2, Median [6]: 0.865 h
λz, Median [6]: 0.801 h⁻¹
Geometric mean AUC0-24h (500 mg Fed (50% fat meal), single oral dose): 0.273 µg·h/mL
AUC0-24 h, Geometric Mean (500 mg Fed, single oral dose): 273000 µg·h/mL
AUC0-24 h, Mean (SD) (500 mg Fed, single oral dose): 273 (22.1) h*mg/mL
AUC0-24 h, Median (500 mg Fed, single oral dose): 261000 µg·h/mL
AUC extrapolated, Geometric Mean (500 mg Fed, single oral dose): 4.83%
AUC extrapolated, Mean (SD) (500 mg Fed, single oral dose): 5.82 (4.55) %
AUC extrapolated, Median (500 mg Fed, single oral dose): 3.41%
AUCinf, Geometric Mean (500 mg Fed, single oral dose): 0.28 µg·h/mL
AUCinf, Mean (SD) (500 mg Fed, single oral dose): 281 (17.6) h*ng/mL
AUCinf, Median (500 mg Fed, single oral dose): 0.271 µg·h/mL
AUCinf/D, Geometric Mean (500 mg Fed, single oral dose): 0.560 ng·h/mL/mg
AUCinf/D, Mean (SD) (500 mg Fed, single oral dose): 0.561 (0.0353) h*ng/mL/mg
AUCinf/D, Median (500 mg Fed, single oral dose): 0.541 ng·h/mL/mg
AUClast, Geometric Mean (500 mg Fed, single oral dose): 0.183 µg·h/mL
AUClast, Mean (SD) (500 mg Fed, single oral dose): 196 (78.0) h*ng/mL
AUClast, Median (500 mg Fed, single oral dose): 0.198 µg·h/mL
AUClast/D, Geometric Mean (500 mg Fed, single oral dose): 0.365 ng·h/mL/mg
AUClast/D, Mean (SD) (500 mg Fed, single oral dose): 0.393 (0.156) h*ng/mL/mg
AUClast/D, Median (500 mg Fed, single oral dose): 0.396 ng·h/mL/mg
CL/F, Geometric Mean (500 mg Fed, single oral dose): 1780 L/h
CL/F, Mean (SD) (500 mg Fed, single oral dose): 1790 (108) L/h
CL/F, Median (500 mg Fed, single oral dose): 1850 L/h
Cmax, Geometric Mean (500 mg Fed, single oral dose): 25.3 ng/mL
Cmax, Mean (SD) (500 mg Fed, single oral dose): 27.7 (13.6) ng/mL
Cmax, Median (500 mg Fed, single oral dose): 25.1 ng/mL
Cmax/D, Geometric Mean (500 mg Fed, single oral dose): 0.0505 ng/mL/mg
Cmax/D, Mean (SD) (500 mg Fed, single oral dose): 0.0554 (0.0273) ng/mL/mg
Cmax/D, Median (500 mg Fed, single oral dose): 0.0502 ng/mL/mg
Tlag, Median (500 mg Fed, single oral dose): 1.00 h
Tlast, Median (500 mg Fed, single oral dose): 18.0 h
Tmax, Median (500 mg Fed, single oral dose): 6.0 h
t1/2, Geometric Mean (500 mg Fed, single oral dose): 3.42 h
t1/2, Mean (SD) (500 mg Fed, single oral dose): 3.45 (0.537) h
t1/2, Median (500 mg Fed, single oral dose): 3.31 h
λz, Geometric Mean (500 mg Fed, single oral dose): 0.203 h⁻¹
λz, Mean (SD) (500 mg Fed, single oral dose): 0.204 (0.0304) /h
λz, Median (500 mg Fed, single oral dose): 0.210 h⁻¹
AUC0-24 h, Geometric Mean [7]: 197000 µg·h/mL
AUC0-24 h, Mean (SD) [7]: 215 (91.9) h*mg/mL
AUC0-24 h, Median [7]: 221000 µg·h/mL
AUC extrapolated, Geometric Mean [7]: 1.07%
AUC extrapolated, Mean (SD) [7]: 1.31 (0.861) %
AUC extrapolated, Median [7]: 0.888%
AUCinf, Geometric Mean [7]: 0.197 µg·h/mL
